The values that follow come from BindingDB's records for 25864869.

Amino acid sequences for entries named in this document (tags omitted).
UniProt P75906, whole entry, looked up: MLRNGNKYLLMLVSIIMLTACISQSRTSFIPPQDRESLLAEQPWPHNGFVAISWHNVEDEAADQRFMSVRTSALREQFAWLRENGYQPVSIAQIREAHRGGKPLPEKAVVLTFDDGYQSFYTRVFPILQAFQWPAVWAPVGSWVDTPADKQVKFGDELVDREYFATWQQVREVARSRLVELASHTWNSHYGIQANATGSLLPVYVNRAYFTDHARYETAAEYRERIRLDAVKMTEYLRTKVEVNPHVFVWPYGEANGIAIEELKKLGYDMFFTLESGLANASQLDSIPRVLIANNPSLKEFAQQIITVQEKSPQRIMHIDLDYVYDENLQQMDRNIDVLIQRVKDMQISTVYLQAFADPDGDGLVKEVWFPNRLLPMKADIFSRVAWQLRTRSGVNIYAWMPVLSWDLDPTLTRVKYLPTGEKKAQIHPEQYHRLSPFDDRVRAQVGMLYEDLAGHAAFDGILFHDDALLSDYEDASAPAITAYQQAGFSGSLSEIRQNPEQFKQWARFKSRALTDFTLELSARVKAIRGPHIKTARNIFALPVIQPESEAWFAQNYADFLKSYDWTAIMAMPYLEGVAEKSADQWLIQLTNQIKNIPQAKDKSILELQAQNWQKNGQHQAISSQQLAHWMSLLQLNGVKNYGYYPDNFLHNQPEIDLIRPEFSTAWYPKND

By Ki is commonly meant the dissociation constant of the complex between target and ligand, obtained from inhibition or displacement. Read a low Ki as a stronger hold on the target.

The target of this test is Poly-beta-1,6-N-acetyl-D-glucosamine N-deacetylase (Escherichia coli (strain K12), UniProt P75906). To be noted: pH 7.5.

Each structure is given as a SMILES string.

In turn, `CO[C@@H]1OC(COCc2ccccc2)[C@@H](O)C(O)[C@@H]1NP(C)(=O)O` (stereo not given in full) yielded a Ki of over 1 mM.

As for `COC1[C@H](O)C(COCc2ccccc2)O[C@@H](OC)[C@H]1NP(C)(=O)O` (stereo not given in full), the Ki was over 1 mM.

Take `CO[C@@H]1OC(CO)[C@@H](OCc2ccccc2)C(O)[C@@H]1NP(C)(=O)O` (stereo not given in full): the Ki was over 1 mM.

In turn, `CP(=O)(O)N[C@H]1C(O)[C@H](OCc2ccccc2)C(CO)O[C@H]1OCc1ccccc1` (stereo not given in full) yielded a Ki of over 1 mM.

In the case of `CP(=O)(O)N[C@H]1C(O)[C@H](O)C(COCc2ccccc2)O[C@H]1OCc1ccccc1` (stereo not given in full), the Ki is over 1 mM.
